Assay results from PMC2481281.

Sequences of proteins named here, by UniProt entry; tags and fusion partners are left off. Residues count along the entry.
UniProt P48061, 22-89: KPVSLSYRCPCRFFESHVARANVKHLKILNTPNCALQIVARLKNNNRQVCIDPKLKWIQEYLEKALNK

Target: CXCL12α protein, chemically synthesized (α-wt) (UniProt P48061)
Test: SDS-PAGE and immunoblot; chemically synthesized chemokines separated by SDS-PAGE and probed with the K15C mAb; dimeric forms seen

- stoichiometry N: 2
Substance: CXCL12α protein, chemically synthesized (α-wt) (from UniProt P48061-2 22-89) (ligand; other documents disagree on this pair)
